{
  "source": "patent US12686809B2",
  "about": "“Methods and formulations for treating oil-containing porous media for oil recovery” (UNIVERSITY OF WYOMING, priority 2020, dated 2026)",
  "format_in_all_cases": "physicochemical",
  "key": {"[1]": {"test": "Krafft and cloud point temperatures at reservoir conditions (IFT cell, 6,000 psi)", "settings": "about 0.1 wt % in blank brine; about 6,000 psi", "procedure": "The cloud points of certain nonionic surfactants were measured at high pressure (about 6,000 psi) and temperature. […] (center panel) and about 99.9° C. (right panel), at a pressure of about 6,000 psi.\n(right panel), at a pressure of about 6,000 psi."}, "[2]": {"test": "IFT between surfactant solutions and reservoir crude oil at ambient conditions (spinning drop)", "settings": "~0.1 wt % in blank brine", "procedure": "Spinning drop method: The spinning drop method was utilized to measure ultra-low IFT values. The instrumentation included a KRÜSS Spinning Drop Tensiometer was employed and the spinning drop method was performed as follows. A crude oil droplet was launched from a capillary plug into a capillary tube filled with the surfactant solution. While the glass capillary tube was rotating, the software-controlled instrument measured the IFT between oil and brine by analyzing the drop shape which depends on the balance between interfacial and centrifugal forces. At low rotational speeds, the IFT is the dominating force and the droplet is spherical in shape. In this case the software uses Young-Laplace equation to calculate IFT. When the angular velocity is high, the droplet is elongated (length is at least 4 times the diameter) and Vonnegut's equation is used to calculate the IFT.\n(§1) Measurement of the IFT between surfactant solutions/reservoir oil at ambient conditions were first performed to, e.g., examine the impact of the hydrophobic chain length on the interfacial properties of cationic surfactants. For these measurements, a KRÜSS Spinning Drop Tensiometer was used."}, "[3]": {"test": "Density difference between surfactant solution and crude oil", "settings": "~0.1 wt % in blank brine vs reservoir crude oil; ambient conditions", "procedure": "Density: The density of the two phases (oil and brine; or oil and surfactant solution) was measured at atmospheric pressure and 22° C. using a DMA45 density meter from Anton Paar. The density of the two phases was also measured at reservoir conditions (120° C., 6000 psi) using an in-line density meter (DMA HPM, Anton Paar).\nas §1"}, "[4]": {"test": "IFT between surfactant solutions and reservoir oil at reservoir conditions", "settings": "about 100° C. and about 1,000 psi", "procedure": "(§2) Captive/rising bubble method: The captive/rising bubble method was utilized to measure the dynamic IFT and contact angle at reservoir conditions. This method was performed as follows. The lighter phase was injected through a needle to form a bubble inside the heavier phase. The IFT between the two phases was calculated from the shape of the bubble using the Young-Laplace equation through Axisymmetric Drop Shape Analysis (ADSA). The state-of-the-art interfacial tension and contact angle (IFT/CA) apparatus adopted for the measurements is described and used by S. Saraji et al., Wettability of Supercritical Carbon Dioxide/Water/Quartz Systems: Simultaneous Measurement of Contact Angle and Interfacial Tension at Reservoir Conditions, Langmuir, 29 (2013) 6856-6866. This experimental setup can operate at elevated temperature (up to 200° C.) and pressure (up to 8000 psi). […] For contact angle measurement, a droplet was injected from the needle onto the solid substrate and monitored by capturing several images with time and analyzing them using ImageJ software.\nPendant drop method: The pendant drop method was mainly utilized when the density of the suspended phase is higher than that of the bulk phase. […] The critical micelle concentration (CMC) of cationic surfactants was measured using surface tension measurements between the surfactant solutions and air at ambient conditions. […]"}, "[5]": {"test": "Contact angle by captive bubble method", "settings": "0.1 wt % in blank brine; about 100° C. and about 1,000 psi; WWW aged MNC substrate", "procedure": "as §2\nContact angle measurements were performed to investigate, e.g., the effect of wettability alteration on spontaneous imbibition. The contact angles were measured in the IFT cell on MNC aged rock substrates (WWW systems) using the captive bubble method at about 100° C. and about 1,000 psi. […]"}, "[6]": {"test": "Microemulsion phase behavior of surfactant solution/crude oil", "settings": "about 0.1 wt % in blank brine/crude oil; about 120° C.", "procedure": "Microemulsion phase behavior: The microemulsion phase behavior of surfactants with different structures was investigated with respect to temperature. The effect of surfactant hydrophobic chain length on phase behavior was examined at ambient temperature (about 22° C.) and at elevated temperature (about 80° C.). For these experiments, glass pipettes were filled with brine/crude oil at a ratio of about 1:1 or surfactant solution/crude oil at a ratio of about 1:1. The pipettes were then sealed with a torch and shaken at the speed of about 250 rpm for about 24 hours (h). The pipettes were then monitored for several days and images were recorded.\nMicroemulsion phase behavior tests can generally be utilized to characterize surfactant stability. The phase behavior of surfactants can depend on distinct parameters such as temperature, surfactant concentration, and/or brine salinity. The effect of temperature on phase behavior was systematically investigated for various surfactants. Here, the phase behavior test was first performed on a pipette containing blank brine and the crude oil.\nFIG. 13 is a series of exemplary images showing the phase behavior of cationic surfactants with a chloride head—TOAC, DTAC, CTAC, and TSAC—at ambient temperatures (left panel) and at about 80° C. (right panel). […]"}},
  "data": [
    {"substance": "Poly (ethylene glycol) tridecyl ether (n = 18) [POE 18]", "values": [
      {"measurement": "cloud point", "setting": "[1]", "result": "about 47.1 °C"},
      {"measurement": "γ (interfacial tension surfactant solution/reservoir oil)", "setting": "[2]", "result": 0.715, "unit": "mN/m"},
      {"measurement": "Δρ (change in density)", "setting": "[3]", "result": 0.3822, "unit": "g/mL"},
      {"measurement": "IFT reduction relative to the blank brine", "setting": "[4]", "result": "about 12 mN/m"},
      {"measurement": "Contact angle", "setting": "[5]", "result": 127.8, "unit": "°"},
      {"measurement": "phase behavior (in words)", "setting": "[6]", "result": "precipitated out of the brine solution"}
    ]}
  ]
}
